This is one part of the list. Records with an inconclusive call do not appear. The source made the active and inactive calls. Calls come from the whole dose curve.
The compounds below were run against Importin subunit beta-1 (Homo sapiens) (UniProt Q14974) (assay: qHTS Assay for Inhibitors of Rango (Ran-regulated importin-beta cargo) - Importin beta complex formation). Conditions: Rango CFP/YFP FRET sensor + importin beta, 45 min; at 92.2 µM (top of the series).
Description: NIH Molecular Libraries Probe Production Centers Network [MLPCN] NIH Chemical Genomics Center [NCGC] MLPCN Grant: R03 MH090808-01A1 Assay Submitter (PI): Petr Kalab NCGC Assay Overview: The small GTPase Ran regulates transport of macromolecules between the nucleus and the cytoplasm (nuclear transport) and has important functions in mitotic spindle assembly, nuclear envelope (NE) formation and nuclear pore complex (NPC) assembly. RanGTP gradient is thought to promote spindle assembly by providing a spatial clue to microtubule nucleation and Aurora A activation. Because the localized release and binding of importin alpha cargo relays this spatial clue to SAFs, inhibitors of the Rango - importin beta complex can then be used in further understanding their role in cell cycle specifically in mitosis progression. […] Activation of Aurora A has been linked to different types of cancer and a number of Aurora kinase inhibitors are being developed as potential canter therapeutics therefore, identified inhibitors of this complex could be developed into potential anti-mitotic probes for cancer treatment. Purified recombinant proteins Rango and importin beta were provided by the assay submitter. The assay used a fluorescence resonance energy transfer (FRET) Rango biosensor that contains the IBB of human snurportin 1 flanked by yellow fluorescent protein (EYFP) at the amino terminus and cerulean CFP10 at the carboxy terminus. […] Inhibitors will therefore be identified based on the ability to interfere with the FRET signal decrease. DMSO treated and no importin beta (buffer only) wells were used as negative and positive controls respectively. FRET readings were obtained at two time points. FRET reading prior to importin beta addition (pre-read) were used flag potential compound interference; FRET reading after importin beta addition (post-read) were used to identify inhibitors using the FRET ratio parameter.
NCGC Assay Protocol Summary: Two and a half uL/well of Rango-buffer solution (50 nM Rango, 1x PBS, 1mM DTT, 0.02% Tween-20, 0.1% BSA final concentrations) was dispensed into 1536-well assay plates (Greiner, solid black medium-binding plates) with Aurora Discovery BioRAPTR Flying Reagent Dispenser (FRD; Beckton-Dickenson). Compound solution (23 nL) was transferred to the assay plate using Kalypsys pin tool equipped with a 1536-pin tool and incubated at room temperature for 5 min followed by a FRET pre-read using the PerkinElmer Envision plate reader. Two and a half uL/well of Importin beta - buffer solution (0.125 microM importin beta, 1x PBS, 1mM DTT, 0.02% Tween-20, 0.1% BSA final concentrations) were then added and incubated at room temperature giving a final reaction volume of 5uL. After 45min FRET post-read was obtained via the Envision plate reader using the same optics and settings as the pre-read (CFP/YFP optimized dual optical module D450/D505; excitation mirror CFP 430/24 nm; and emission filters CFP 486/10 nm and YFP 530/10 nm).
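Note: 0% = DMSO wells and 100% = buffer wells lacking importin beta; nearly all actives have a fitted effect of over 15% in size.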

By UniProt entry, the sequences of proteins in these tests, tags left out.
UniProt Q14974, whole entry: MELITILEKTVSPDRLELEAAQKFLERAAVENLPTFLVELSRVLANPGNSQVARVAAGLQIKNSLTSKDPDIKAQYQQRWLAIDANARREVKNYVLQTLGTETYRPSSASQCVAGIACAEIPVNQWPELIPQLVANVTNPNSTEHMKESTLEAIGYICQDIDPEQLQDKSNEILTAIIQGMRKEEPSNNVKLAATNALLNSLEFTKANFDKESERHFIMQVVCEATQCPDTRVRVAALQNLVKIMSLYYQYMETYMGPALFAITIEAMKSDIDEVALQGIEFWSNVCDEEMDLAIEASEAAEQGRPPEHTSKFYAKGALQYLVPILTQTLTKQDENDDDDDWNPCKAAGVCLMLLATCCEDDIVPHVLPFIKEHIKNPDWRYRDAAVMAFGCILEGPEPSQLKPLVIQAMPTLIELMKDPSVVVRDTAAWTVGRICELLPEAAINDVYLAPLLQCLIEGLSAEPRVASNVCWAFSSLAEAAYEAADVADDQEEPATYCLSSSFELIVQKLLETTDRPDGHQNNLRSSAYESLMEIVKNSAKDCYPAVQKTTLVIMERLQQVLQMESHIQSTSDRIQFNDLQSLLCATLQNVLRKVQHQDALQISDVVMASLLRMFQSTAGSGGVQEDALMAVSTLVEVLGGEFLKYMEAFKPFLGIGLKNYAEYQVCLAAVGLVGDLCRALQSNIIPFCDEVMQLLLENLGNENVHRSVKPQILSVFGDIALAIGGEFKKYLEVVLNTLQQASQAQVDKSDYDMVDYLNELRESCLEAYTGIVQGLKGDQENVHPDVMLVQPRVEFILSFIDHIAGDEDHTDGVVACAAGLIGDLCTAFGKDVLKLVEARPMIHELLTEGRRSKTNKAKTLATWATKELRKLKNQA
UniProt O95149, whole entry partner: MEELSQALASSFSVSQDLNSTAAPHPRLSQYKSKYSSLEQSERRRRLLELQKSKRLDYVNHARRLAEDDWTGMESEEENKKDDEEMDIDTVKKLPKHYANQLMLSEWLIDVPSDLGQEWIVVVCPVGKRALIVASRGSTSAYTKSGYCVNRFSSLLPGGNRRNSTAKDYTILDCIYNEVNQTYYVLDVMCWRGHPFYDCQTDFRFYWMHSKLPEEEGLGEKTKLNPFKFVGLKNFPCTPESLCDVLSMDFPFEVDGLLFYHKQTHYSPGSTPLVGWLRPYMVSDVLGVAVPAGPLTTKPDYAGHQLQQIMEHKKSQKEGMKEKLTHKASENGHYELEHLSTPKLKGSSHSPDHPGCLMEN

Row | Compound | inhibition of complex formation
1 | CCc1ccc(OP(C)(=O)O)cc1 | inactive: 2.21%
2 | NC(=O)c1cc([N+](=O)[O-])cc([N+](=O)[O-])c1N | inactive: 4.02%
3 | CN(C(=O)Cc1ccc(Cl)c(Cl)c1)[C@H]1CCCC[C@H]1N1CCCC1 | inactive: 0.921%
4 | COc1ccccc1OP(C)(=O)Nc1ccc(Br)cc1 (stereo not given) | inactive: 2.48%
5 | Cc1ccc(N/C(=N/P(=O)(N2CCOCC2)N2CCOCC2)N2CCOCC2)cc1 | inactive: -0.991%
6 | COc1ccccc1OP(=O)(Nc1ccc(C)cn1)Oc1ccccc1OC | inactive: 2.15%
7 | COc1ccc(OP(C)(=O)Nc2ccccn2)cc1 (stereo not given) | inactive: -2.32%
8 | Cc1ccc(OP(=O)(Nc2nccs2)Oc2ccc(C)cc2)cc1 | inactive: 3.81%
9 | CN1CCCC(OC(=O)C(c2ccccc2)c2ccccc2)C1 (stereo not given) | inactive: -2.55%
10 | CN(C)CCOC(=O)C(O)(c1ccccc1)C1CCCC1 (stereo not given) | inactive: 1.32%
11 | Clc1ccc(Cl)c(NC2=NCC(CBr)S2)c1 (stereo not given) | inactive: -1.02%
12 | CCN(N=Nc1nonc1N)c1nonc1N | inactive: 1.54%
13 | Nc1cccc2ccc([As](=O)(O)O)cc12 | inactive: -1.48%
14 | CCCCCCCCCCCCCCCC1C[N+](C)(C)CCOP(C)(=O)O1 (stereo not given) | inactive: 3.64%
15 | CP(=O)(Nc1ccc(Cl)cc1Cl)Oc1ccccc1 (stereo not given) | inactive: -0.0983%
16 | CP(=O)(OCCOc1ccccc1)OCCOc1ccccc1 | inactive: 3.71%
17 | CC(=O)Nc1ccc([As](=O)(O)O)cc1 | inactive: 3.51%
18 | O=C(O)c1ccccc1[As](=O)(O)O | inactive: 2.27%
19 | CCCC1OP(N)(=O)OCC1CC (stereo not given) | inactive: -0.903%
20 | O=P(Nc1nc2ccc(Cl)cc2s1)(c1ccccc1)c1ccccc1 | inactive: -2.65%
21 | Cc1cc(C)cc(OP(C)(=O)Nc2cccc(C(F)(F)F)c2)c1 (stereo not given) | inactive: 2.12%
22 | Cc1cc(SC(NC(=O)c2ccc(F)cc2)C(Cl)(Cl)Cl)ncn1 (stereo not given) | inactive: -1.87%

Row | Compound | inhibition of complex formation
23 | CCOP(=O)(Nc1ccccc1)OCC | inactive: -0.436%
24 | COc1ccccc1OP(C)(=O)Nc1ccc(C)c(C)c1 (stereo not given) | inactive: -0.172%
25 | CN(C(=O)Cc1ccc(Cl)c(Cl)c1)[C@H]1CCCC[C@@H]1N1CCCC1 | inactive: 1.33%
26 | Cc1ccc(NP(=O)(Oc2ccccc2F)Oc2ccccc2F)nc1 | inactive: 1.04%
27 | COc1ccc(OP(C)(=O)Nc2ccccc2Br)cc1 (stereo not given) | inactive: 5.77%
28 | COC(=O)c1cc2c(s1)N=C(c1ccccc1)N(C)P2(=O)N1CCOCC1 (stereo not given) | inactive: -0.546%
29 | Cc1c([N+](=O)[O-])cc([N+](=O)[O-])c(Br)c1[N+](=O)[O-] | inactive: -0.376%
30 | Cc1ccc(OP(=O)(Nc2ccccn2)Oc2ccc(C)cc2)cc1 | inactive: -2.61%
31 | CC(=O)NC(SC(=S)N(CC(C)C)CC(C)C)C(Cl)(Cl)Cl (stereo not given) | inactive: 3.43%
32 | O=C(OC1CN2CCC1CC2)c1ccccc1 (stereo not given) | inactive: 4.68%
33 | CCC(=O)N1C2C3N(C(=O)CC)C1C1N(C(=O)CC)C(C(N1C(=O)CC)N3C(=O)CC)N2C(=O)CC | inactive: 0.193%
34 | CCN(CC)CCCOC(=O)C(O)(c1ccccc1)C1CCCCC1 (stereo not given) | inactive: 2.56%
35 | CP(=O)(Nc1ccccc1)Oc1ccc(F)cc1 (stereo not given) | inactive: 0.117%
36 | CC(NC(=O)COC(=O)C(O)(c1ccccc1)c1ccccc1)c1ccccc1 (stereo not given) | inactive: 3.42%
37 | Cc1ccccc1OP(=O)(Nc1ccccn1)Oc1ccccc1C | inactive: -1.18%
38 | O=c1c2cc([N+](=O)[O-])ccc2[nH]c2c([N+](=O)[O-])cc([N+](=O)[O-])cc12 | inactive: 4.63%
39 | CCCCCOc1ccc(NP(C)(=O)Oc2ccc(Cl)cc2Cl)cc1 (stereo not given) | inactive: 1.87%
40 | CN(C)C(=O)Oc1noc2ccccc12 | inactive: -1.57%
41 | O=C(NC1CCS(=O)(=O)C1)NP(=S)(Oc1ccccc1)Oc1ccccc1 (stereo not given) | inactive: -4.18%
42 | CCNC(=S)/N=C(\N)N[N+](=O)[O-] | inactive: -0.351%
43 | c1ccc(-c2nn[nH]n2)c(-c2nn[nH]n2)c1 | inactive: 4.76%
44 | Cc1ccc(NP(=O)(Oc2cccc(C)c2)Oc2cccc(C)c2)nc1 | inactive: 0.99%

Row | Compound | inhibition of complex formation
45 | O=P1(N(CCCl)CCCl)OCCC2CCCCN21 (stereo not given) | inactive: -2.56%
46 | CCOC(=O)c1ccc(NP(C)(=O)Oc2ccc(F)cc2)cc1 (stereo not given) | inactive: -1.13%
47 | COc1ccc(OP(C)(=O)Nc2ccc(SC(F)(F)F)cc2)cc1 (stereo not given) | inactive: 3.49%
48 | CC(=O)c1ccc(N2CC2c2ccncc2)cc1 (stereo not given) | inactive: 1.55%
49 | COC(=O)C1(C)COP(=O)(NCc2ccccc2)OC1 (stereo not given) | inactive: -0.0247%
50 | O=C(OCCN1CCN(CCOCc2ccccc2)CC1)C(O)(c1ccccc1)c1ccccc1 | inactive: 1.09%
51 | Cc1ccccc1CN(C)C(=O)COC(=O)C(O)(c1ccccc1)c1ccccc1 | inactive: -1.74%
52 | C[C@H]1OP(=O)(Oc2ccccc2)C[C@@H]2O[C@@H]21 (stereo not given in full) | inactive: -1.99%
53 | C[C@@H]1C=CCP(=O)(Oc2ccccc2)O1 (stereo not given in full) | inactive: 5.3%
54 | CC(=O)Nc1ccc([As](=O)(O)O)c(O)c1 | inactive: -0.128%
55 | CC(=O)Nc1ccc(Oc2c([N+](=O)[O-])cc([N+](=O)[O-])cc2[N+](=O)[O-])cc1 | inactive: -1.08%
56 | O=P1(Nc2nc3ccc(Cl)cc3s2)COc2ccccc2O1 (stereo not given) | inactive: -1.77%
57 | CCOc1ccc(C2=NCC(CBr)S2)cc1 (stereo not given) | inactive: 6.41%
58 | CCc1cc(O)c([N+](=O)[O-])c(C)c1[N+](=O)[O-] | inactive: -0.0066%
59 | CP(=O)(Nc1ccccc1F)Oc1ccccc1 (stereo not given) | inactive: -4.04%
60 | CC(C)(C)C(=O)NC(Sc1ccccc1)C(Cl)(Cl)Cl (stereo not given) | inactive: 2.37%
61 | CC(C)c1ccc(OP(C)(=O)Nc2ccc(SC(F)(F)F)cc2)cc1 (stereo not given) | inactive: -1.11%
62 | CP(=O)(Nc1ccc2c(c1)OCCO2)Oc1ccccc1 (stereo not given) | inactive: 0.0754%
63 | Cc1ccccc1NP(C)(=O)Nc1ccccc1C | inactive: 3.75%
64 | CP(=O)(Nc1ccc(SC(F)(F)F)cc1)Oc1ccc(F)cc1 (stereo not given) | inactive: -1.82%
65 | O=P(Nc1nccs1)(c1ccccc1)c1ccccc1 | inactive: -0.289%

— PubChem BioAssay AID540263 (National Center for Advancing Translational Sciences (NCATS), 2011)
